In patent US4921984A, “Novel platinum complexes” (Nippon Kayaku Kabushiki Kaisha, priority 1985, dated 1990):

With `O=C1[O][Pt-2]2([NH2+]CCCC[NH2+]2)[O]C(=O)C12CCC2` [Compound No. 2, cis-Cyclobutane-1,1-dicarboxylato-1,4-butanediamine Platinum] as the compound, how does the Solubility in water read?
Its Solubility in water is > 5000 µg/mL.

Which Solubility in water does the source give for `CC(N)CCCN.O=C([O-])C1(C(=O)[O-])CCC1.[Pt+2]` [Compound No. 7, cis-Cyclobutane-1,1-dicarboxylato-1-methyl-1,4-butanediamine platinum] here?
Its Solubility in water is > 5000 µg/mL.

Which Solubility in water does the source give for `CCC(N)CCCN.O=C([O-])C1(C(=O)[O-])CCOCC1.[Pt+2]` [Compound No. 12, cis-4-Oxacyclohexane-1,1-dicarboxylato-1-ethyl-1,4-butanediamine platinum] here?
Its Solubility in water is > 5000 µg/mL.

With `CCC(CN)CCN.O=C([O-])C1(C(=O)[O-])CCC1.[Pt+2]` [Compound No. 32, cis-Cyclobutane-1,1-dicarboxylato-2-ethyl-1,4-butanediamine platinum] as the compound, how does the Solubility in water read?
The Solubility in water was > 5000 µg/mL.
